Test results from PMC12071940, “Shortened PGLYRP1 Peptides Regulate Antitumor Activity of Cytotoxic Lymphocytes via TREM-1 Receptor: From Biology to Bioinformatics” (International Journal of Molecular Sciences, 2025).

Amino acid sequences for entries named in this document (tags omitted). Residues count along the entry.
UniProt Q9NP99, 21-205 limits assumed: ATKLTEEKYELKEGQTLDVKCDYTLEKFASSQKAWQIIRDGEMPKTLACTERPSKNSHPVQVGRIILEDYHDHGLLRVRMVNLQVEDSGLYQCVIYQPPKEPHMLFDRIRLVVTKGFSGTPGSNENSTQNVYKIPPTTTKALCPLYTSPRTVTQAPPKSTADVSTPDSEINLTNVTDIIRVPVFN

Target: T1, TREM-1 receptor (Homo sapiens, UniProt Q9NP99)
T1 construct: made in house
Assay: Microscale thermophoresis binding to sTREM-1
Conditions: Alexa Fluor 633-labeled sTREM-1, peptide in 16 concentrations by sequential dilution, 30 min in the dark, room temperature, 24% IR laser power, at least three replicates, average ± SD, read-out: Kd (dissociation constant)
Experimental: First, we evaluated the affinity of the interaction of these peptides with the receptor in solution. The interaction between the selected peptides and the receptor was studied using microscale thermophoresis. The affinity of the studied complexes was assessed based on the change in thermodynamic signals obtained by adding various concentrations of peptides to fluorescently labeled TREM-1.
The purified sTREM-1 protein was labeled using an Alexa Fluor^TM 633 Protein Labeling Kit (Life Technologies Corporation, Eugene, OR, USA) in accordance with the manufacturer’s protocol.
The 17.0, N9, and N15 peptides (C = 200 nM for all) were incubated for 30 min in the dark at room temperature in 16 different concentrations obtained through sequential dilution, starting with the highest soluble concentration. The samples were transferred to glass capillaries (Monolith NT Capillaries) and analyzed via microscale thermophoresis using a Nano-Temperature Monolith NT 115 device (24% IR laser power). The signal quality was monitored using a NanoTemper Monolith device to detect possible autofluorescence of the ligand, aggregation, or changes in the photobleaching rate. The experiments were carried out in at least three replicates and processed using affinity analysis software (MO Control v.1.6.1, NanoTemper Technologies GmbH, München, Germany).

Row | Compound | Kd
1 | C[C@H](NC(=O)[C@@H]1CCCN1)C(=O)N[C@@H](CO)C(=O)N[C@@H](CS)C(=O)N[C@@H](CCC(N)=O)C(=O)N[C@@H](CCC(N)=O)C(=O)N[C@@H](CCC(N)=O)C(=O)N[C@@H](C)C(=O)N[C@@H](CCCNC(=N)N)C(=O)O [N9] | 9.66 ± 0.5 nM
2 | CSCC[C@H](NC(=O)[C@H](Cc1c[nH]cn1)NC(=O)[C@H](Cc1ccc(O)cc1)NC(=O)[C@H](Cc1c[nH]cn1)NC(=O)[C@H](CCC(N)=O)NC(=O)[C@@H](NC(=O)[C@H](CC(N)=O)NC(=O)[C@@H](N)CCCNC(=N)N)C(C)C)C(=O)N[C@@H](CCCCN)C(=O)N[C@H](C(=O)O)[C@@H](C)O [17.0] | 1.32 ± 0.2 nM
3 | CC(C)[C@H](NC(=O)[C@H](Cc1ccc(O)cc1)NC(=O)[C@@H](N)CCCNC(=N)N)C(=O)N[C@H](C(=O)N[C@H](C(=O)N[C@@H](CO)C(=O)N[C@@H](Cc1c[nH]cn1)C(=O)N[C@H](C(=O)N[C@@H](C)C(=O)NCC(=O)N[C@@H](CO)C(=O)N[C@@H](CO)C(=O)N[C@@H](CS)C(=O)N[C@@H](CC(N)=O)C(=O)N[C@H](C(=O)O)[C@@H](C)O)[C@@H](C)O)C(C)C)C(C)C [N15] | 7.43 ± 0.4 nM
